## Ab-14 light chain CDR variants: yeast mating affinities

Binding partner: SARS-CoV-2 spike HR2 peptide, sequence PDVDLGDISGINAS.

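The parent was found by panning a naive human phage display library on the peptide. The variants were designed computationally from a first round of random CDR variants and then made and measured. Group labels follow the data file (En: ensemble of fine-tuned language models; GP: Gaussian process model; HC: hill climbing; Gen: genetic algorithm; Gibbs: Gibbs sampling; a sequence that several methods proposed may carry one label only). AlphaSeq pools MATa yeast showing the antibodies with MATalpha yeast showing the peptide. After mating in shaken culture at 30 °C for 16 h, diploids were selected and their barcode pairs sequenced. Read counts were normalised to the haploid input and turned into Kd by a linear fit to BCL2-family pairs of known affinity, for each replicate. Each pool was mated in six replicate cultures.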

Parent: Ab-14, a human scFv built as VH, a 15-residue (Gly4Ser)3 linker, VL. Only the CDRs of the light chain vary.
VH: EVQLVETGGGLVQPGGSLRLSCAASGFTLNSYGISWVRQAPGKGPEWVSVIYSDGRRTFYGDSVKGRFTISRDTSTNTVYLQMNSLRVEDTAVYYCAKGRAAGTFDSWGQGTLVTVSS
VL: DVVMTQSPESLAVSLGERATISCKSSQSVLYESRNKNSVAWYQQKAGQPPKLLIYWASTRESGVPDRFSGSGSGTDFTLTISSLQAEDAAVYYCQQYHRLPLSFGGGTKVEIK

Each variant is given by its three light chain CDRs, as the data file delimits them; those of the parent are KSSQSVLYESRNKNSVA, WASTRES, QQYHRLPLS.
This list holds designs with more than six substitutions.
Kd is apparent (estimated from mating counts) and averaged on the log scale over replicates with a signal. Smaller is tighter.
"nd" marks a missing value. The strain was present, yet no cells mated with the target were sequenced in any replicate, which points to weak or no binding.
As a blank, each scFv also met three strains without target: over all light chain designs, 4% of these pairings were detected, typically at 430 nM and seldom below 38 nM.
Of ten entries with the parent sequence, four were seen in most replicates (averages 2.2 nM to 240 nM), three in one and three in none, so single entries are noisy.
Values of this round are not directly comparable with the first-round values of the same sequences.
In the paper, a design with two or fewer of six values counts as a poor binder.

Variant HISMITLQGMRQRNSVA / QMTTRVN / QQYDRLPLA [En_Gen] gave 4.0 nM (6 of 6 replicates). Variant KIGHGLTTEMRNRNSVA / QTETRVE / QHYHRLPLS [En_HC] showed 49 nM (6 of 6 replicates). Variant HVAMECAEEKNKYRNIA / DASMRLA / QQYVRLPLG [En_Gibbs] showed 840 pM (6 of 6 replicates). For KVYQGINTHLGAHSSIA / QEETRLE / QQYAHLPLS [En_Gen], the assay gave 5.9 nM (6 of 6 replicates). Variant MVYQAVMMGGVARNSIA / NATMRPD / QQYHRLPLE [En_Gen] showed 19 nM (6 of 6 replicates).

Variant HMSMLTLGGMRSRNSVA / QMTTREN / QQYDRLPLA [En_Gen] gave 2.8 nM (6 of 6 replicates). For MISQLFNMGQFAINSVA / QASLRNE / QQYDRLPLA [En_Gen], the assay gave 96 nM (5 of 6 replicates). With ILSMSELYEDRMKNSVA / NASQREQ / QQYHRLPLS [GP_Gibbs] the result was 140 nM (5 of 6 replicates). For KIGGVTNGMSRNKNSVA / EQQTRED / QQYNRLPLS [En_HC], the assay gave 1.6 nM (6 of 6 replicates). With MISQLMQMGQFAINSVA / QASIRNA / QQYDRLPLA [En_Gen] the result was 200 nM (2 of 6 replicates).

Variant KIASSMNMTSHHINSVA / QSTTREE / QQYNHLPLS [En_HC] showed 2.8 nM (6 of 6 replicates). Variant RISIPSDYYMENRSSIA / EMTVKEM / QQYQKLPLA [En_Gibbs] gave 14 nM (2 of 6 replicates). With TLTQVTMVESYAKNSVA / QASTREE / QDYHRLPLS [En_HC] the result was 10 nM (6 of 6 replicates). Variant KMSQENPYESRNSNSVA / HASTREM / QQYHRLPLS [GP_Gibbs] gave 800 pM (6 of 6 replicates). Variant MISQVLNTLTRTGNNVA / DLTEREV / QQYFRLPLS [En_Gen] gave nd (0 of 6 replicates).

Variant KLSLVLGVSKQVEKNIA / NERLKVA / QQYDRLPLT [En_Gibbs] gave 4.6 nM (6 of 6 replicates). Variant SLHLYTNTEENNNNSIA / EKSYRAY / QQYSHLPLV [En_Gibbs] showed 28 nM (6 of 6 replicates). Variant KLSMSMLMESRHKNSVA / ENSTREE / QHYNRLPLS [En_HC] showed nd (0 of 6 replicates). With HITYGMMVHGRISKSIA / QAEERAK / QQYDRLPLA [En_Gen] the result was 6.4 nM (6 of 6 replicates). For KLSQVTHLEHKNKNSIA / EMVTREK / QQYDRLPLS [En_HC], the assay gave 11 nM (6 of 6 replicates).

Variant SLYEITQELSGKKHSVA / DNSTRGE / QQYFRLPLE [En_Gen] showed 8.2 nM (6 of 6 replicates). Variant KLSGLMQSSKFAKNNVA / ENNTREK / QQYERLPLS [En_Gen] showed 27 nM (6 of 6 replicates). Variant KLSQSVGYESRLKNNVA / NASTRLE / QQYHRLPLS [GP_Gibbs] showed 2.3 nM (6 of 6 replicates). Variant KLSQSWLYLARNSNSVA / NASQRED / QQYHRLPLS [GP_Gibbs] showed 6.4 nM (6 of 6 replicates). Variant KIHCRELWYQGQINNIA / EAAKLVE / QQYALLPLA [En_Gibbs] gave nd (0 of 6 replicates).

With SLDSAVAYDLQNKKNIA / EETRVDR / QQYAHLPLM [En_Gibbs] the result was 2.5 nM (6 of 6 replicates). For MISQLYNMGSFAINSVA / QASMRNA / QQYDRLPLM [En_Gen], the assay gave 230 nM (5 of 6 replicates). Variant QLSMITGHMSVSKNNVA / EMETRLN / QQYDRLPLS [En_Gen] gave 9.6 nM (6 of 6 replicates). Variant KVQPSELGESRHDNSVA / NASKRES / QQYHRLPLS [GP_Gibbs] showed 2.9 nM (6 of 6 replicates). Variant KLLATVMNETRNRNNVA / HMTTRED / QQYHRLPLS [En_HC] gave 28 nM (6 of 6 replicates).

For QLPNYRPDGYLQKNNVA / EGTERSH / QQYMRLPLF [En_Gibbs], the assay gave 2.5 nM (6 of 6 replicates). Variant RMNKFMSGATEAKNSMA / GVEHRAR / QSYHRLPLS [En_Gibbs] gave 180 nM (2 of 6 replicates). For KLSMSVLYEDRHSNSVA / NASKRFM / QQYHRLPLS [GP_Gibbs], the assay gave 5.1 nM (6 of 6 replicates). Variant TLHNGDNHDQVSKYSIA / DATLIGE / QQYARLPLE [En_Gibbs] showed 50 nM (6 of 6 replicates). With KQSQSGPYGDRNFNSVA / HASYRIS / QQYHRLPLS [GP_Gibbs] the result was 30 nM (6 of 6 replicates).

Variant TIADVMGHMSKNRNNVA / DMDTRGD / QQYNHLPLS [En_Gen] showed 690 pM (6 of 6 replicates). Variant IISGLMLMESRNKNSVA / NAETREY / QHYDRLPLS [En_HC] showed nd (0 of 6 replicates). Variant HLSHSTDLESVHKNSIA / DLMTRES / QQYHRLPLS [En_HC] gave 740 pM (6 of 6 replicates). Variant KLSMVTGHMKMAKNNVA / EMVTREE / QQYDRLPLS [En_Gen] gave 84 nM (1 of 6 replicates). For KVSYSMDYESRNKNSVA / EASDRLS / QDYHRLPLS [GP_Gibbs], the assay gave 27 nM (6 of 6 replicates).

Variant MISQVLNTLTRNGNNVA / DLTEREK / QQYFRLPLS [En_Gen] showed 14 nM (6 of 6 replicates). With NVRLNEGEIDMHWYSIA / SVDIRAD / QQYSRLPLF [En_Gibbs] the result was 7.0 nM (6 of 6 replicates). For KVSEEVLMGDRNKNSVA / KASTRLS / QQYHRLPLS [GP_Gibbs], the assay gave 7.2 nM (6 of 6 replicates). With KVSEFMRGLMGRKDSIA / DNETRNS / QQYDRLPLS [En_Gen] the result was 49 nM (6 of 6 replicates). For EIRWQQYDQSEMEANIA / QESTRHQ / QQYFRLPLS [En_Gibbs], the assay gave 50 nM (1 of 6 replicates).

Variant KIQHLTYFESEGEWSVA / DANTSVL / QDYFRLPLS [En_Gibbs] showed 1.8 nM (6 of 6 replicates).

Excerpt, the first 4 entries:

For HISMITLQGMRQRNSVA / QMTTRVN / QQYDRLPLA [En_Gen], the assay gave 4.0 nM (6 of 6 replicates).
For KIGHGLTTEMRNRNSVA / QTETRVE / QHYHRLPLS [En_HC], the assay gave 49 nM (6 of 6 replicates).
For HVAMECAEEKNKYRNIA / DASMRLA / QQYVRLPLG [En_Gibbs], the assay gave 840 pM (6 of 6 replicates).
For KVYQGINTHLGAHSSIA / QEETRLE / QQYAHLPLS [En_Gen], the assay gave 5.9 nM (6 of 6 replicates).

Values reported by Li et al. 2023, doi:10.1038/s41467-023-39022-2 (FLAb copy).